# Experimental data published in PubChem BioAssay AID1789 (The Scripps Research Institute Molecular Screening Center, 2009).
# The list shows a part of the results, in another mix than the full data. Activity calls are given as the source filed them.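 How the source made its calls: active means inhibition above the screen-wide mean plus 3 SD, computed separately per campaign (cut at about 16% in these data); inactive means the rest.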
# Test system: Heat shock protein HSP 90 (rabbit reticulocyte lysate; luciferase refolding)
# Assay: inhibitors of HSP90 chaperone activity – cell lysate, luminescence, primary screen (AID 1789);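 further: 0% = DMSO wells and 100% = 60 µM geldanamycin wells; inhibitors lower the luminescence because luciferase stays unfolded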
# Settings: 3 h, at 5.6 µM, stronger effect = higher value
row,SMILES,inhibition
1,O=[As](O)(c1ccc(O)cc1)c1ccccc1O,inactive: 11.4%
